Data reported in PubChem BioAssay AID623959 (National Center for Advancing Translational Sciences (NCATS), 2012).
This is a selection; strong and weak results do not stand in their true shares. Inconclusive results are not listed. Active and inactive are the calls of the source. The call rests on the fitted dose curve; in most records, active means well fitted curve in the direction sought with a large enough effect; inconclusive means small, poorly fitted or top-dose-only effect, or another doubt; inactive means no such curve, though single readings can be large or run the other way.

The chains behind the UniProt entries cited, without tags or fusion partners.
UniProt Q8NER1, whole entry: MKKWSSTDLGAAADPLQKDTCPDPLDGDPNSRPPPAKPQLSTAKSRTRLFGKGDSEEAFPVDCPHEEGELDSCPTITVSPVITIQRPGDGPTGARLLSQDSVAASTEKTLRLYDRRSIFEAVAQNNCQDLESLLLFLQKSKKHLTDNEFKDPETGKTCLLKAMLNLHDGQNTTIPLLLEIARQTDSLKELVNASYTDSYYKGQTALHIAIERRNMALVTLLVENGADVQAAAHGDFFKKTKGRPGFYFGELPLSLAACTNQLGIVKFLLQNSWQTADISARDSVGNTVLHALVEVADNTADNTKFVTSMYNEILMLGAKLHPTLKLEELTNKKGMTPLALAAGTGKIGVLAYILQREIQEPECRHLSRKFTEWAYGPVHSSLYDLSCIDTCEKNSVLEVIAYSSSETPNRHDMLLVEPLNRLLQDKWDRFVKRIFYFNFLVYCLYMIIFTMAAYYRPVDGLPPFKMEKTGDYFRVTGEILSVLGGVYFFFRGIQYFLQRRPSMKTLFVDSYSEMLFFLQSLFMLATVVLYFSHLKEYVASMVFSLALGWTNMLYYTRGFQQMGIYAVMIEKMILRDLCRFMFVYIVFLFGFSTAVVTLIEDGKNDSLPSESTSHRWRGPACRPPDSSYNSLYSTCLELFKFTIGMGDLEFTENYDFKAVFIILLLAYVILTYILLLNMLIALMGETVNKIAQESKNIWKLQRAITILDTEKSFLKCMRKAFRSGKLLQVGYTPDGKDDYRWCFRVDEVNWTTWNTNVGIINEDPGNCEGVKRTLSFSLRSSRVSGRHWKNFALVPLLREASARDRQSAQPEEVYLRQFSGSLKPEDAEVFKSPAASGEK

Target: Transient receptor potential cation channel subfamily V member 1 (Homo sapiens) (UniProt Q8NER1)
Experiment: qHTS Assay for Compounds that Act as Potentiators of the Vanilloid Receptor 1: Hit Validation; further: % of control where 0% means no effect
Details: TRPV1-expressing cells, Fluo-8 calcium influx, capsaicin EC20; at 42.1 µM (top of the series)
From the text: The transient receptor potential ion channel, family V, number 1, (TRPV1) is one of the most important molecular transducers of painful stimuli and a potential target for analgesic drug development. Although recent clinical trials with orthosteric antagonists have not produced a successful drug because of a hyperthermia side effect and their tendency to block thermal noxious pain, this ion channel is undeniably well placed in the pain pathway, and the idea of blocking pain signals before they enter the CNS is an excellent concept and of proven efficacy when TRPV1 agonists are used. […]
Upon TRPV1 activation in TRPV1 cells, the channel opens and extracellular cations flow through the channel into the cytosol. […] The amount of accumulated calcium is precisely quantified using the FDSS kinetic reader and the calcium dye. […] Plates will be loaded into the FDSS kinetic reader and a 1 sec / cycle for 10 second baseline signal will be measured. Compound library will then be added with a pintool at 23 nl and measured kinetically for 3 minutes. This portion of the read is considered the agonist portion of the screen. […] Signal will be measured kinetically for an additional 2 minutes. This portion of the read is considered the allosteric enhancer portion of the screen. The FDSS reader has a standard filter set capable of measuring calcium bound Fluo-8 (ex=480 and em=520 nm).

| SMILES | activity change, positive = potentiation |
| --- | --- |
| COc1ccc(C(=O)NCC2(N3CCOCC3)CCCCC2)cc1OC | inactive: 4.55% |
